Source: US9808528B2, “Protein-polymer-drug conjugates and methods of using same” (priority 2014, dated 2017)

Experiment: Mouse plasma PK (Example 27, Table IX)
Conditions: total AF-HPA by LC-MS/MS; single IV dose, CD-1 mice

Q: Which results are given for “Trastuzumab-((EG2-MI (2%)-(10 kDa PHF-BA (28%)-(AF-HPA-Ala (9%) [Example 18A]”?
A: Plasma PK AUC0 to 336: 19.4 µg·h/mL; Plasma PK T1/2: 154 h

Q: With “Trastuzumab-((EG2-MI (2%)-(10 kDa PHF-BA (28%)-(AF-HPA-Ala (9%) [Example 18C]” as the substance, how does the “Plasma PK AUC0 to 336” value read?
A: 25.1 µg·h/mL

Q: What about the “Plasma PK T1/2” value of the same substance?
A: 119 h

Q: Which “Plasma PK AUC0 to 336” value does the source give for “Trastuzumab-((EG2-MI (2%)-(10 kDa PHF-BA (28%)-(AF-HPA-Ala (9%) [Example 18B]” here?
A: 22.7 µg·h/mL

Q: What about the “Plasma PK T1/2” value of the same substance?
A: 139 h
